Experimental findings from article PMC7143076, “Anion Inhibition Studies of the β-Class Carbonic Anhydrase CAS3 from the Filamentous Ascomycete Sordaria macrospora” (Metabolites, 2020) are described below.

Protein sequences, listed by entry. Tags and fused reporters are not part of them. Residues count along the entry.
UniProt F7VU04, 1-174 limits assumed: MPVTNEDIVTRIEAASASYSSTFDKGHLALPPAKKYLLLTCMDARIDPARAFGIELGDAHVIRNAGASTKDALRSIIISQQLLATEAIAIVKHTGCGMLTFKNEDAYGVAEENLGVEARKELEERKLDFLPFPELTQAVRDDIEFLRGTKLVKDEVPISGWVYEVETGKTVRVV

SMILES strings stand for the structures.

For the experiment, the target named is CAS3 (Sordaria macrospora, UniProt F7VU04). Description: stopped-flow CO2 hydrase assay. The experiment is classed as biochemical. The following applies: read-out: CAS3 ^c; CO2 1.7-17 mM; pH 8.3, 10-20 mM TRIS, 10 mM NaClO4, 20 °C; 15 min preincubation; sodium salt.

On to `O=[As](O)(O)c1ccccc1`, for which the Ki stood at 91 µM.
